## AlphaSeq binding of Ab-14 heavy chain variants to a spike HR2 peptide

Reference: Li et al. 2023, doi:10.1038/s41467-023-39022-2. File: FLAb, binding data.

All variants were tested on one target, the spike HR2 peptide PDVDLGDISGINAS (SARS-CoV-2).

Ab-14 is the parent antibody, in scFv form: VH, then the linker GGGGSGGGGSGGGGS, then VL. The light chain is unchanged in all variants.
VH: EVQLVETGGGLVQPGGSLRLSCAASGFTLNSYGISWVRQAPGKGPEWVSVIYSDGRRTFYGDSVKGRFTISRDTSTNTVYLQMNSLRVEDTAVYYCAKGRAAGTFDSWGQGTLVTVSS
VL: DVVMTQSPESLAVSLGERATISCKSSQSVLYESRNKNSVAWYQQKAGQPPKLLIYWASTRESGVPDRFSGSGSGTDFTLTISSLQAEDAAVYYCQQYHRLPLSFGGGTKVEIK

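The starting antibody came from a phage panning campaign against this peptide. The variants were designed computationally from a first round of random CDR variants and then made and measured. Their group label is 14H_En_Gen (En: ensemble of fine-tuned language models; Gen: genetic algorithm). Affinity was read by AlphaSeq, a pooled yeast mating assay with surface-displayed partners. Mating (16 h, 30 °C) was followed by selection of diploids and sequencing of their barcodes. Each replicate has its own calibration line, from reference interactions of the BCL2 family. The assay was run in six technical replicates.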

Each variant is given by its three heavy chain CDRs, as the data file delimits them; those of the parent are GFTLNSYGIS, VIYSDGRRTFYGDSVK, GRAAGTFDS.
The read-out is the apparent dissociation constant on a log10 scale (nM): the lower, the stronger.
The mean shown is taken over the replicates in which the pair was detected.
An entry "n.d." has no value in the source: the pair was not observed among the diploids in that replicate. This suggests poor binding but is not conclusive.
A sequence measured in both rounds can read differently, since the two assays cover different ranges.

{"CDR-H1": "GFDLNEYGIS", "CDR-H2": "VIYADGIRTAYADSVK", "CDR-H3": "GNNAGTFDI", "log10 Kd (nM) by replicate": "-0.85 -1.18 -0.90 -1.36 -1.21 -0.85", "mean, log10 nM": "-1.06", "control signals": "0 of 18"}
{"CDR-H1": "GFDLNEYGIS", "CDR-H2": "VIYADGMRTAYTDSVK", "CDR-H3": "GENAGTFDT", "log10 Kd (nM) by replicate": "0.49 -0.01 0.26 0.50 0.44 0.28", "mean, log10 nM": "0.33", "control signals": "0 of 18"}
{"CDR-H1": "GFDLNEYGIS", "CDR-H2": "VIYADGQRTVYADSVK", "CDR-H3": "GNNAGTFDV", "log10 Kd (nM) by replicate": "-0.17 -0.12 -0.17 -0.62 -1.02 -0.41", "mean, log10 nM": "-0.42", "control signals": "1 of 18 (1.05)"}
{"CDR-H1": "GFDLNEYGIS", "CDR-H2": "VIYADGRRTAYVDSVK", "CDR-H3": "GNVAGTFDV", "log10 Kd (nM) by replicate": "-0.32 0.37 -0.22 -0.07 -0.11 0.50", "mean, log10 nM": "0.02", "control signals": "0 of 18"}
{"CDR-H1": "GFDLNEYGIS", "CDR-H2": "VIYADGMRTAYTDSVK", "CDR-H3": "GNVAGTFDQ", "log10 Kd (nM) by replicate": "-0.56 -0.38 0.05 -0.84 -0.13 -0.50", "mean, log10 nM": "-0.40", "control signals": "1 of 18 (0.44)"}
{"CDR-H1": "GFDLNEYGIS", "CDR-H2": "VIYADGSRTAYADSVK", "CDR-H3": "GNNAGTFDI", "log10 Kd (nM) by replicate": "-0.98 -0.91 -1.01 -1.52 -0.92 -0.53", "mean, log10 nM": "-0.98", "control signals": "0 of 18"}
{"CDR-H1": "GFDLNEYGIS", "CDR-H2": "VIYADGVRKAYADSVK", "CDR-H3": "GTNAGTFDV", "log10 Kd (nM) by replicate": "0.30 0.40 0.17 0.22 0.55 0.32", "mean, log10 nM": "0.33", "control signals": "0 of 18"}
{"CDR-H1": "GFDLNEYGIS", "CDR-H2": "VIYADGIRTAYSDSVK", "CDR-H3": "GNVAGTFDI", "log10 Kd (nM) by replicate": "1.07 0.24 0.14 -0.45 -0.43 0.09", "mean, log10 nM": "0.11", "control signals": "0 of 18"}
{"CDR-H1": "GFDLNEYGIS", "CDR-H2": "VIYADGQRTAYADSVK", "CDR-H3": "GNAAGTFDV", "log10 Kd (nM) by replicate": "0.15 -0.09 -0.28 -0.20 -0.07 0.06", "mean, log10 nM": "-0.07", "control signals": "1 of 18 (1.83)"}
{"CDR-H1": "GFDLDEYGIS", "CDR-H2": "VIYADGMRTAYADDVK", "CDR-H3": "GNNAGTFDL", "log10 Kd (nM) by replicate": "-0.07 -0.08 -0.31 0.17 -0.42 -0.18", "mean, log10 nM": "-0.15", "control signals": "1 of 18 (0.91)"}
{"CDR-H1": "GFDLNEYGIS", "CDR-H2": "VIYADGVRKFYADSVK", "CDR-H3": "GNVAGTFDV", "log10 Kd (nM) by replicate": "-0.26 -0.57 -0.77 -0.44 -1.06 -0.98", "mean, log10 nM": "-0.68", "control signals": "0 of 18"}
{"CDR-H1": "GFDLNEYGIS", "CDR-H2": "VIYADGRRTAYVDNVK", "CDR-H3": "GEVAGTFDV", "log10 Kd (nM) by replicate": "-0.33 -0.31 -0.65 -0.64 -0.68 -0.26", "mean, log10 nM": "-0.48", "control signals": "1 of 18 (1.17)"}
{"CDR-H1": "GFDLNEYGIS", "CDR-H2": "VIYADGRRTAYADSVK", "CDR-H3": "GNLAGTFDV", "log10 Kd (nM) by replicate": "-0.03 -0.31 -0.30 -0.63 -0.63 -0.24", "mean, log10 nM": "-0.36", "control signals": "0 of 18"}
{"CDR-H1": "GFDLNEYGIS", "CDR-H2": "VIYADGSRTAYSDSVK", "CDR-H3": "GEVAGTFDT", "log10 Kd (nM) by replicate": "-0.03 -0.53 -0.38 -0.28 -0.37 -0.33", "mean, log10 nM": "-0.32", "control signals": "0 of 18"}
{"CDR-H1": "GFDLNEYGIS", "CDR-H2": "VIYADGVRTAYSDSVK", "CDR-H3": "GNTAGTFDT", "log10 Kd (nM) by replicate": "2.62 1.85 0.87 1.13 1.10 1.57", "mean, log10 nM": "1.52", "control signals": "0 of 18"}
{"CDR-H1": "GFDLDEYGIS", "CDR-H2": "VIYADGMRTAYADSVK", "CDR-H3": "GNNAGTFDI", "log10 Kd (nM) by replicate": "-0.31 -0.40 -0.72 -0.45 -0.43 -0.45", "mean, log10 nM": "-0.46", "control signals": "1 of 18 (2.59)"}
{"CDR-H1": "GFDLDEYGIS", "CDR-H2": "VIYADGKRTAYSDSVK", "CDR-H3": "GEVAGTFDI", "log10 Kd (nM) by replicate": "0.38 -0.14 -0.22 0.10 -0.21 0.27", "mean, log10 nM": "0.03", "control signals": "0 of 18"}
{"CDR-H1": "GFDLDEYGIS", "CDR-H2": "VIYADGLRTAYADSVK", "CDR-H3": "GNNAGTFDV", "log10 Kd (nM) by replicate": "-0.53 -0.65 -0.70 -0.90 -0.61 -0.53", "mean, log10 nM": "-0.65", "control signals": "0 of 18"}
{"CDR-H1": "GFDLNEYGIS", "CDR-H2": "VIYADGSRKAYADSVK", "CDR-H3": "GENAGTFDV", "log10 Kd (nM) by replicate": "n.d. n.d. -1.38 -2.18 n.d. n.d.", "mean, log10 nM": "-1.78", "control signals": "0 of 18"}
{"CDR-H1": "GFDLNEYGIS", "CDR-H2": "VIYADGMRTAYIDNVK", "CDR-H3": "GEVAGTFDV", "log10 Kd (nM) by replicate": "-0.05 0.06 -0.39 -0.63 0.05 0.17", "mean, log10 nM": "-0.13", "control signals": "0 of 18"}
{"CDR-H1": "GFDLDEYGIS", "CDR-H2": "VIYADGSRTAYADSVK", "CDR-H3": "GNTAGTFDL", "log10 Kd (nM) by replicate": "-0.28 -0.07 -0.69 -0.91 -0.32 -0.86", "mean, log10 nM": "-0.52", "control signals": "0 of 18"}
{"CDR-H1": "GFDLNEYGIS", "CDR-H2": "VIYADGKRTAYADAVK", "CDR-H3": "GNVAGTFDV", "log10 Kd (nM) by replicate": "-0.47 -0.54 -0.62 -1.05 -1.22 -0.72", "mean, log10 nM": "-0.77", "control signals": "0 of 18"}
{"CDR-H1": "GFDLNEYGIS", "CDR-H2": "VIYADGVRKAYADSVK", "CDR-H3": "GGNAGTFDV", "log10 Kd (nM) by replicate": "-0.73 -0.82 -0.90 -0.84 -0.65 -0.34", "mean, log10 nM": "-0.71", "control signals": "0 of 18"}
{"CDR-H1": "GFDLNEYGIS", "CDR-H2": "VIYADGMRTFYADNVK", "CDR-H3": "GEVAGTFDL", "log10 Kd (nM) by replicate": "-0.20 -0.98 -0.68 -1.18 0.06 -0.57", "mean, log10 nM": "-0.59", "control signals": "0 of 18"}
{"CDR-H1": "GFDLDEYGIS", "CDR-H2": "VIYADGMRTAYVDSVK", "CDR-H3": "GENAGTFDM", "log10 Kd (nM) by replicate": "-0.19 -0.33 -0.61 -0.42 -0.21 0.03", "mean, log10 nM": "-0.29", "control signals": "1 of 18 (2.20)"}
{"CDR-H1": "GFDLNEYGIS", "CDR-H2": "VIYADGMRTAYTDSVK", "CDR-H3": "GNQAGTFDL", "log10 Kd (nM) by replicate": "-0.52 -0.44 -0.55 -0.86 -0.89 -0.78", "mean, log10 nM": "-0.67", "control signals": "0 of 18"}

Excerpt, the first 2 entries:

{"CDR-H1": "GFDLNEYGIS", "CDR-H2": "VIYADGIRTAYADSVK", "CDR-H3": "GNNAGTFDI", "log10 Kd (nM) by replicate": "-0.85 -1.18 -0.90 -1.36 -1.21 -0.85", "mean, log10 nM": "-1.06", "control signals": "0 of 18"}
{"CDR-H1": "GFDLNEYGIS", "CDR-H2": "VIYADGMRTAYTDSVK", "CDR-H3": "GENAGTFDT", "log10 Kd (nM) by replicate": "0.49 -0.01 0.26 0.50 0.44 0.28", "mean, log10 nM": "0.33", "control signals": "0 of 18"}

Empty control strains, which show no peptide, gave a signal in 1% of pairings with all heavy chain designs; the median was 2.08 and 95% of these signals were weaker than 0.84. No background was subtracted. Also given: how often the same scFv was detected with the empty control strains, with their mean in brackets.
In the paper, a design with two or fewer of six values counts as a poor binder.
Of ten entries with the parent sequence, four were seen in most replicates (averages 0.34 to 2.37), three in one and three in none, so single entries are noisy.